Measurements taken from ChEMBL document CHEMBL4665871, “Small-molecule active pharmaceutical ingredients of approved cancer therapeutics inhibit human aspartate/asparagine-β-hydroxylase” (Bioorg Med Chem, 2020).

Assays:
[1] = molecular target: T1, Aspartyl/asparaginyl beta-hydroxylase (Homo sapiens) (UniProt Q12797)
T1 sequence (whole entry): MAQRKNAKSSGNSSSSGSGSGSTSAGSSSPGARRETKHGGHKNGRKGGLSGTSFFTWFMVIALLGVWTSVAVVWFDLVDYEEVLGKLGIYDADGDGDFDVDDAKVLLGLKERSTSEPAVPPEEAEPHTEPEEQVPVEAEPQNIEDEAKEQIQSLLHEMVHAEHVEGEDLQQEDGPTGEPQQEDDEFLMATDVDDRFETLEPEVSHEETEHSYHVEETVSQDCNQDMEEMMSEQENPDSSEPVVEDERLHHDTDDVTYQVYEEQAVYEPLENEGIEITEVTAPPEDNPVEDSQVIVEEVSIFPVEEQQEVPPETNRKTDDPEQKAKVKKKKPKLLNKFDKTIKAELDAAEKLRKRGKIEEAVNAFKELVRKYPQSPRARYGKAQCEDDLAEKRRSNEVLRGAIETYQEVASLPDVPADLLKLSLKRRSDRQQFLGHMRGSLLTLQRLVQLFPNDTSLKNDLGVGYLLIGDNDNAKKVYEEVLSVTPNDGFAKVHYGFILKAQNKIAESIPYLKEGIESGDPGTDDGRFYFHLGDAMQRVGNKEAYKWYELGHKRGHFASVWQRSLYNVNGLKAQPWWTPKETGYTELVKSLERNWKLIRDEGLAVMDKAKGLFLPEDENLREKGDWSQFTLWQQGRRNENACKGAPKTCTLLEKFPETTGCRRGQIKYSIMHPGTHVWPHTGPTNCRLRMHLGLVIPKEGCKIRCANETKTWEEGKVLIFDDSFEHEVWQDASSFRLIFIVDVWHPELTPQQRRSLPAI

[2] = molecular target: Aspartyl/asparaginyl beta-hydroxylase (Homo sapiens) (UniProt Q12797); remark: listed apart in the source

Row | Molecule | Tm [1] [°C] | Tm [2] [°C]
1 | CO[C@H](C(=O)[C@@H](O)[C@@H](C)O)[C@@H]1Cc2cc3cc(O[C@H]4C[C@@H](O[C@H]5C[C@@H](O)[C@H](O)[C@@H](C)O5)[C@H](O)[C@@H](C)O4)c(C)c(O)c3c(O)c2C(=O)[C@H]1O[C@H]1C[C@@H](O[C@H]2C[C@@H](O[C@H]3C[C@](C)(O)[C@H](O)[C@@H](C)O3)[C@@H](O)[C@@H](C)O2)[C@H](O)[C@@H](C)O1 | 0.4 | –
2 | BLEOMYCIN | – | -0.8
